These compounds were tested against T1, 5-hydroxytryptamine receptor 1A (Rattus norvegicus, UniProt P19327) (assay: Tested for affinity against 5-hydroxytryptamine 1A receptor using [3H]8-OH-DPAT in homogenized rat brain).

Ki [nM] | Structure (SMILES)
> 10000 | CCCN1CCC[C@@H](c2ccc(OS(=O)(=O)C(F)(F)F)cc2)C1
> 10000 | CCCN1CCC[C@@H](c2ccc(OS(=O)(=O)C(F)(F)F)c(OS(=O)(=O)C(F)(F)F)c2)C1

The compounds below were run against T1, 5-hydroxytryptamine receptor 1A (assay: Tested for affinity against 5-hydroxytryptamine 1A receptor using [3H]8-OH-DPAT in homogenized rat brain tissue).

Structure (SMILES) | Ki [nM]
C#CCN1CCC[C@@H](c2cccc(C#N)c2)C1 | > 10000
CCCN1CCC[C@@H](c2cccc(OS(=O)(=O)C(F)(F)F)c2)C1 | 1530
N#Cc1cccc([C@@H]2CCCNC2)c1 | 8000
CN(C)CCCN1CCC[C@@H](c2cccc(C#N)c2)C1 | 7120
CCCN1CCC[C@@H](c2ccccc2OS(=O)(=O)C(F)(F)F)C1 | 1840
CCCN1CCC[C@@H](c2cccc(S(=O)(=O)N(C)C)c2)C1 | 8160
CCC(C)N1CCC[C@@H](c2cccc(C#N)c2)C1 (stereo partly specified) | 8070
CCCN1CCC[C@@H](c2cccc(-c3ccsc3)c2)C1 | 160
CCN1CCC[C@@H](c2cccc(C#N)c2)C1 | > 10000
CCCN1CCC[C@@H](c2cccc(NS(=O)(=O)C(F)(F)F)c2)C1 | > 2000
CCCN1CCC[C@@H](c2cccc(OS(C)(=O)=O)c2)C1 | 1380
CN1CCC[C@@H](c2cccc(C#N)c2)C1 | > 10000
CCCN1CCC[C@@H](c2cccc(C)c2)C1 | 1200
CCN1CCC[C@@H](c2cccc(OS(=O)(=O)C(F)(F)F)c2)C1 | 1040
CCCN1CCC[C@@H](c2cccc(CO)c2)C1 | 2410
CCCN1CCC[C@@H](c2cccc(CC#N)c2)C1 | 3260
CCCN1CCC[C@@H](c2cccc(S(C)(=O)=O)c2)C1 | 2590

Structure (SMILES) | Ki [nM]
N#Cc1cccc([C@@H]2CCCN(CCc3ccccc3)C2)c1 | 120
CCCN1CCC[C@@H](c2cccc(Br)c2)C1 | 800
CC(C)N1CCC[C@@H](c2cccc(C#N)c2)C1 | > 10000
C=CCN1CCC2c3cccc(OS(=O)(=O)C(F)(F)F)c3CCC21 (stereo unspecified) | 18
CCCN1CCCC2c3cccc(OS(=O)(=O)C(F)(F)F)c3CCC21 (stereo in doubt; 45) | 1140
CCCN1CCC[C@@H](c2cccc(OC)c2)C1 | 3600
C=CCN1CCC2c3cccc(C(N)=O)c3CCC21 (stereo unspecified) | > 1000
CCCN1CCC[C@@H](c2cccc(C(N)=O)c2)C1 | 5040
C=CCN1CCC2c3cccc(C#N)c3CCC21 (stereo unspecified) | > 400
CCCCN1CCC[C@@H](c2cccc(C#N)c2)C1 | 4480
CCCN1CCC2c3cccc(OS(=O)(=O)C(F)(F)F)c3CCC21 (stereo unspecified) | 72
CCCN1CCC[C@@H](c2cccc(C#N)c2)C1 | > 10000
C=CCN1CCC[C@@H](c2cccc(C#N)c2)C1 | 9600
C=CCN1CC[C@@H]2c3cccc(OS(=O)(=O)C(F)(F)F)c3CC[C@@H]21 (stereo in doubt; 49) | 117
CCCc1cccc([C@@H]2CCCN(CCC)C2)c1 | 135
CCCN1CCC[C@@H](c2cccc(OCC(F)(F)F)c2)C1 | 1200

These compounds were tested against T1, 5-hydroxytryptamine receptor 1A (assay: Tested for affinity against 5-hydroxytryptamine 1A receptors using [3H]8-OH-DPAT in homogenized rat cloned CHO cells).
Assay type: cell-based

Structure (SMILES) | Ki [nM]
CCCN1CCC[C@@H](c2cccc(NS(=O)(=O)C(F)(F)F)c2)C1 | > 10000

From ChEMBL document CHEMBL1127438, “Substituted (S)-phenylpiperidines and rigid congeners as preferential dopamine autoreceptor antagonists: synthesis and structure-activity relationships” (J Med Chem, 1994)
